Chains of the proteins cited; added tags and fusions are not shown.
UniProt Q923J1, whole entry: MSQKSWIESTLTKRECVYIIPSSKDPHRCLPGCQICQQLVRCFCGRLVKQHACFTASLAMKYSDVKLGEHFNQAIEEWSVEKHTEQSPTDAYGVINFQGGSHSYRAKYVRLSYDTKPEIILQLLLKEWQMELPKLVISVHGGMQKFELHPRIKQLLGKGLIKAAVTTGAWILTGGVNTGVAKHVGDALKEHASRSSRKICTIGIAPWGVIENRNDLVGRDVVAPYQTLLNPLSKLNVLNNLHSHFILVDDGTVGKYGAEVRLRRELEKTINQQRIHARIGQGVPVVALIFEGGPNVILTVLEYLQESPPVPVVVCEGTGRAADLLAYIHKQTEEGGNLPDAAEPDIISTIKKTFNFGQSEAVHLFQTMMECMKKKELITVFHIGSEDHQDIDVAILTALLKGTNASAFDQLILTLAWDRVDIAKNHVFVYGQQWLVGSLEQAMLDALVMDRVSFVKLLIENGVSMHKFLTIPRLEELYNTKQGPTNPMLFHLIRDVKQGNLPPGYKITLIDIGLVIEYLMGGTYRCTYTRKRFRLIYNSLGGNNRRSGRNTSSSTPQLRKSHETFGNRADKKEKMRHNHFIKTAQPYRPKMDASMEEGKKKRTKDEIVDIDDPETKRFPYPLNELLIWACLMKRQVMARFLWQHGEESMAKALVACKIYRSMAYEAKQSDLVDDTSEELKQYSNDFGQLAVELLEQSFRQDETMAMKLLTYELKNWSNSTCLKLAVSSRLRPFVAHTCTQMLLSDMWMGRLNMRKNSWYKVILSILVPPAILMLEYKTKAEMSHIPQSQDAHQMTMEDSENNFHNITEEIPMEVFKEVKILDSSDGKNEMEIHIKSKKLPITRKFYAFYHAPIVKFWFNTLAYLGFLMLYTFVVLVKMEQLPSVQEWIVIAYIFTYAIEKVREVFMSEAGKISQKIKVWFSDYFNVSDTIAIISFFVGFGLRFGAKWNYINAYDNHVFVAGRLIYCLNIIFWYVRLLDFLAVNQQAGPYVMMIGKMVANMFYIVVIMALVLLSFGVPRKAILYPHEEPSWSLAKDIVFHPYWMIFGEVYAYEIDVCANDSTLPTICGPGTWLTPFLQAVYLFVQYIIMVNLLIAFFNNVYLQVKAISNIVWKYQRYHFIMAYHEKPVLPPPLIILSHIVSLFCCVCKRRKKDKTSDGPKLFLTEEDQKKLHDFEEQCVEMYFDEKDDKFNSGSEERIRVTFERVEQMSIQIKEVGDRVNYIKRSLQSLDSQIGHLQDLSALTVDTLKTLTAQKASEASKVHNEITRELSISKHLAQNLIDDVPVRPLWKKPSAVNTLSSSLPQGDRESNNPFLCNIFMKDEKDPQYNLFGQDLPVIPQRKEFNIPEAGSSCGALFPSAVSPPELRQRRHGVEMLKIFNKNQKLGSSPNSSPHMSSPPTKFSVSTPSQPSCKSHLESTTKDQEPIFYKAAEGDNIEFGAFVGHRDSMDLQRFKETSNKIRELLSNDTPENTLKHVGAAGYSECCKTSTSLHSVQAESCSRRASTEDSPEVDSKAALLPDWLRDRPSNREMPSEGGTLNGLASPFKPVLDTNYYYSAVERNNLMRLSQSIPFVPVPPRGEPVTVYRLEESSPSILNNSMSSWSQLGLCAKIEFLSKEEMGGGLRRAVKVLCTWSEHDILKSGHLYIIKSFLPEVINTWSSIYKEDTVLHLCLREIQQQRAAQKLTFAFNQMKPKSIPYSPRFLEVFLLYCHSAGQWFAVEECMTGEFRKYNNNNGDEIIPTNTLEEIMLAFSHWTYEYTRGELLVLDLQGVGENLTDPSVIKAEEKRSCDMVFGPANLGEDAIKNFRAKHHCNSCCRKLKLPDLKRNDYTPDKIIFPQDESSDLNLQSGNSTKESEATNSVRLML

According to patent US9334256B2, “Agents and methods for treating ischemic and other diseases” (NoNO INC., priority 2011, dated 2016):

How the values were obtained:
TRPM7 = TRPM7 (Mus musculus, UniProt Q923J1); assay: PI uptake cell death assay in TRPM7-expressing HEK-293 cells (type of assay from Example 1); conditions: Table X
Description: The TRPM7 channel provides a pathway for mono- and divalent cations into the cell, and is unique in that it contains a functional C-terminal α-kinase domain. […] The induction of chemical anoxia in host cells such as recombinant HEK293 cells can be used to activate TRPM7. This activation is detectable with the use measurements of cellular calcium accumulation. This is achievable with the use of a fluorescent calcium indicator. Alternatively, this activation can also be measured using radiolabelled Ca2+ (^45Ca^2+) as described previously by Sattler et al. (Sattler et al., 1998) and Aarts et al. (Aarts et al., 2003).
Hoechst 33342 was purchased as a 10 mg/mL solution in water (Molecular Probes Inc., Eugene, Oreg.). Propidium iodide (PI) was purchased as a powder and prepared by dissolving in PBS at 1 mg/mL. PI solutions were stored at 4° C. until use. Hoechst and PI were added directly to cell culture to 5 μg/mL and 10 μg/mL respectively. Cells were incubated at room temperature or at 37° C. for 10 minutes to allow for adequate uptake, and fluorescence observed using a NIKON Eclipse TE2000 inverted microscope and TE-FM Epi-Fluorescence attachment (Nikon Canada).
Untransfected cells or cells transfected with the TRPM7/pTracer or ΔPDZ/pTracer construct were plated onto 24-well plates, 24-hours post-transfection. […] Calcium uptake, as assessed by fluo-3 fluorescence, was measured in response to 0, 5, 10, 15, 20, or 25 mM sodium cyanide (NaCN; Mallinckrodt Baker Inc., Phillipsburg, N.J.) dissolved in aglycaemic HBSS. […] Measurements of fluo-3 fluorescence were taken over a 2 hour period at 10 minutes intervals at room temperature (22-25° C.). […]
Cell death, as assessed by PI uptake, was examined at the end of the 2 hour calcium uptake assay. Cells were stained with 10 μg/mL PI and PI fluorescence measured using the Fluoroskan microplate reader (λ excitation=590 nm, λ emission=630 nm) and accompanying Ascent software (Thermo Electron Corp.). To obtain a reading of maximal fluorescence (Fmax), 0.5% Triton X-100 was added to each well and allowed to incubate for 20 minutes. […]

TRPM7 ion channel = TRPM7 ion channel (Mus musculus, UniProt Q923J1); assay: Whole-cell patch clamp of TRPM7 currents in HEK293 cells; conditions: value shown = concentration at which the compound significantly inhibits the ion channel
Procedure: To further understand the structure function relationships between the TRPM7 inhibitors identified in the TRPM7-dependent HEK death assay, the activity of a subset of these inhibitors described herein were tested for their ability to inhibit TRPM7 currents in cell systems. Whole-cell patch clamp recordings were used essentially as described to test the TRPM7 inhibitors in HEK293 cells, H9c2 cardiomyocytes and cultured neurons. […] Those that provide >10% inhibition of TRPM7 channel activity in the HEK293 cell system were labeled with the concentration tested (generally 5 uM). Thus, the compounds in this table marked with such a value are able to block the activity gof the TRPM7 ion channel. FIGS. 2A-C provide an example of this for the TRPM7 inhibitor 399 (Structure 9). […] Numbers in brackets indicate the number of independent tests, and the bars represent the SEM.
Whole-cell currents were recorded using an Axopatch 1D or MultiClamp 700B amplifier and were digitized at 10 kHz and low-pass filtered at 2 kHz, at room temperature. pClamp10 software was used for data acquisition and analysis. Patch electrodes were pulled from Borosilicate glass and fire polished to a resistance of 2-4 MΩ. All drugs were administrated directly to cell bodies under recording through the fast exchange perfusion system.
The intracellular solution (ICS) contains (mM) 145 Cs-methanesulfonate, 8 NaCl, l MgCl2, 4.1 CaCl2, 10 EGTA, and 10 HEPES, 5 ATP, pH at 7.4, with 300-305 mOsm. The extracellular solution (ECS) contains (mM) 140 NaCl, 5 KCl, 2 CaCl2, 20 HEPES, and 10 glucose, pH at 7.4 and with 315-320 mOsm.
Voltage stimuli lasting 250 ms were delivered at 5-s intervals with voltage ramps ranging from −100 to +100 mV. The current values at −80 mV and +80 mV on I-V curve represent the measures of inward and outward current respectively.
Table X and FIGS. 7-51 show screening data for several additional compounds that are variants of M5, M6 or M21. The synthesis of compounds of Table X and FIGS. 7-51 is shown in Appendices A-C. […]

HeLa = assay: Cell proliferation assay, HeLa; conditions: 10 uM, 72 hours
Procedure: (§1) Cells were grown to 70% confluency, trypsinized, counted, and seeded in 96-well flat-bottom plates at a final concentration of 2.5×10^3-5.0×10^3 cells/well in growth media containing 5% FBS (Day 0). Other well sizes and cell densities were used successfully as well. Cells were allowed to incubate in growth media for 24 hours to allow for maximum adhesion. Treatment with the test agent began on Day 1 and continued for 72 hours either with or without retreatment. At the 72 hour time point, viable cell numbers are quantified by the CellTiter-Glo® cell viability assay as described above, or using standard MTT, SRB or BrDU assays. Experiments were repeated at least twice with the same concentrations to determine growth inhibitory activity. […] In an alternative format, this assay was used to screen potential TRPM7 inhibitory compounds at a fixed concentration, usually 5 or 10 uM. Alternatively, lower or higher concentrations were used. […]
(§2) Data Collection—For the cell proliferation studies, data from each experiment was collected and expressed as % Cell Growth using the following calculation: % Cell Growth=(ftest/fvehicle)×100 Where ftest is the luminescent signal of the tested sample, and fvehicle is the luminescence of the vehicle in which the drug is dissolved (or appropriate measure for the other viability/proliferation measures). […]

MCF7 = assay: Cell proliferation assay, MCF7; conditions: 10 uM, 72 hours
Procedure: as §1, §2

B16F10 = assay: Cell proliferation assay, B16F10; conditions: 10 uM, 72 hours
Procedure: as §1, §2

MCF10A = assay: Cell proliferation assay, MCF10A; conditions: 10 uM, 72 hours
Procedure: as §1, §2

Y79 = assay: Cell proliferation assay, Y79; conditions: 10 uM, 72 hours
Procedure: as §1, §2

WI-38 = assay: Cell proliferation assay, WI-38; conditions: 10 uM, 72 hours
Procedure: as §1, §2

DMS53 = assay: Cell proliferation assay, DMS53; conditions: 10 uM, 72 hours
Procedure: as §1, §2

Structure (SMILES) | TRPM7 current (TRPM7 ion channel) | Inhibition of proliferation, HeLa (HeLa) | Inhibition of proliferation, MCF7 (MCF7) | Inhibition of proliferation, B16F10 (B16F10) | Inhibition of proliferation, MCF10A (MCF10A) | Inhibition of proliferation, Y79 (Y79) | other results
COc1ccc2sc(C3NCCc4cc(OC)c(OC)cc43)c(Cl)c2c1 (stereo not drawn) |  |  |  |  |  |  | Normalized ratio of PI uptake (5 μM) (TRPM7; 5 μM, the lower the number, the more potent in protecting against cell death): 0.008; Normalized ratio of PI uptake (10 μM) (TRPM7; 10 μM, the lower the number, the more potent): 0.012; IC50 (TRPM7; read-out: IC50 (μM) PI uptake): 0.32 µM
COc1ccc2c(c1)C(c1sc3ccccc3c1Cl)=NCC2 | 5 μM (Those that provide >10% inhibition of TRPM7 channel activity in the HEK293 cell system were labeled with the concentration tested (generally 5 uM)) |  |  |  |  |  | 
CC1c2ccsc2CCN1C(=O)c1sc2ccccc2c1Cl (stereo not drawn) | 5 μM (Those that provide >10% inhibition of TRPM7 channel activity in the HEK293 cell system were labeled with the concentration tested (generally 5 uM)) |  |  |  |  |  | 
COc1ccc2sc(C(=O)N3CCCc4cc(C)ccc43)c(Cl)c2c1 |  | + (A ‘+’ sign indicates that more than 40% inhibition was observed) | + (A ‘+’ sign indicates that more than 40% inhibition was observed) | + (A ‘+’ sign indicates that more than 40% inhibition was observed) | + (A ‘+’ sign indicates that more than 40% inhibition was observed) | + (A ‘+’ sign indicates that more than 40% inhibition was observed) | 
Cc1c(Cc2ccc(Cl)c(Cl)c2)c(=O)oc2cc(O)c(F)cc12 | 5 μM (Those that provide >10% inhibition of TRPM7 channel activity in the HEK293 cell system were labeled with the concentration tested (generally 5 uM)) |  |  |  |  |  | 
COc1ccc2c(Cl)c(C(=O)N3CCCc4cc(C)ccc43)sc2c1 |  | + (A ‘+’ sign indicates that more than 40% inhibition was observed) | + (A ‘+’ sign indicates that more than 40% inhibition was observed) | + (A ‘+’ sign indicates that more than 40% inhibition was observed) | + (A ‘+’ sign indicates that more than 40% inhibition was observed) | + (A ‘+’ sign indicates that more than 40% inhibition was observed) | Inhibition of proliferation, WI-38 (WI-38): + (A ‘+’ sign indicates that more than 40% inhibition was observed); Inhibition of proliferation, DMS53 (DMS53): + (A ‘+’ sign indicates that more than 40% inhibition was observed)
